The text below walks through data of patent US20230332181A1.

Assay [1] has as its target SAd36 fiber-T4 fibritin-SpT (FFSpT) on the SAd36.FFSpT virus (simian (chimpanzee) adenovirus species E serotype 36; bacteriophage T4) (UniProt P10104). Put plainly: cell-based or functional assay.
Assay [2] addresses SAd36 hexon with hypervariable region 5 replaced by SpT (HSpT) on the SAd36.HSpT virus (simian (chimpanzee) adenovirus species E serotype 36). Put plainly: cell-based or functional assay.
Assay [3] addresses wild-type SAd36 viral proteins. Briefly: cell-based or functional assay.
Assay [4] addresses SAd36 fiber-T4 fibritin-SpT (FFSpT) on the SAd36.FFSpT virus (simian (chimpanzee) adenovirus species E serotype 36; bacteriophage T4) (UniProt P10104). Put plainly: comparison of the two conjugated viruses.
For assay [5] the target is unchanged. Briefly: virus incubated with Cas9SpC at 37° C. for 2 h, SDS-PAGE with Coomassie staining.
Assay [6] has as its target SAd36 hexon with hypervariable region 5 replaced by SpT (HSpT) on the SAd36.HSpT virus (simian (chimpanzee) adenovirus species E serotype 36). The assay is described as above.

Regarding “3×NLS_SpCas9_linker SpC_6×His (from UniProt Q99ZW2 1-1368) (enzyme)”, the figures for the dual-edited (tdTomato-positive) mAi9 cells on day 4, fluorescence microscopy in assay [1], in assay [2] and in assay [3] were 23.9%, 27.9% and 0.5%, respectively. Besides, the amount of Cas9SpC on the FFSpT virus against the HSpT virus in assay [4] is 10 times less. The same substance showed an FFSpT sites on the virion conjugated (sites per virion) in assay [5] of 36. The same substance came in with a fraction of the 720 HSpT sites converted to the Cas9SpC-conjugate form (fraction of the 720 HSpT sites) in assay [6] of 0.5.
